Chains of the proteins cited; added tags and fusions are not shown.
UniProt Q00959, whole entry: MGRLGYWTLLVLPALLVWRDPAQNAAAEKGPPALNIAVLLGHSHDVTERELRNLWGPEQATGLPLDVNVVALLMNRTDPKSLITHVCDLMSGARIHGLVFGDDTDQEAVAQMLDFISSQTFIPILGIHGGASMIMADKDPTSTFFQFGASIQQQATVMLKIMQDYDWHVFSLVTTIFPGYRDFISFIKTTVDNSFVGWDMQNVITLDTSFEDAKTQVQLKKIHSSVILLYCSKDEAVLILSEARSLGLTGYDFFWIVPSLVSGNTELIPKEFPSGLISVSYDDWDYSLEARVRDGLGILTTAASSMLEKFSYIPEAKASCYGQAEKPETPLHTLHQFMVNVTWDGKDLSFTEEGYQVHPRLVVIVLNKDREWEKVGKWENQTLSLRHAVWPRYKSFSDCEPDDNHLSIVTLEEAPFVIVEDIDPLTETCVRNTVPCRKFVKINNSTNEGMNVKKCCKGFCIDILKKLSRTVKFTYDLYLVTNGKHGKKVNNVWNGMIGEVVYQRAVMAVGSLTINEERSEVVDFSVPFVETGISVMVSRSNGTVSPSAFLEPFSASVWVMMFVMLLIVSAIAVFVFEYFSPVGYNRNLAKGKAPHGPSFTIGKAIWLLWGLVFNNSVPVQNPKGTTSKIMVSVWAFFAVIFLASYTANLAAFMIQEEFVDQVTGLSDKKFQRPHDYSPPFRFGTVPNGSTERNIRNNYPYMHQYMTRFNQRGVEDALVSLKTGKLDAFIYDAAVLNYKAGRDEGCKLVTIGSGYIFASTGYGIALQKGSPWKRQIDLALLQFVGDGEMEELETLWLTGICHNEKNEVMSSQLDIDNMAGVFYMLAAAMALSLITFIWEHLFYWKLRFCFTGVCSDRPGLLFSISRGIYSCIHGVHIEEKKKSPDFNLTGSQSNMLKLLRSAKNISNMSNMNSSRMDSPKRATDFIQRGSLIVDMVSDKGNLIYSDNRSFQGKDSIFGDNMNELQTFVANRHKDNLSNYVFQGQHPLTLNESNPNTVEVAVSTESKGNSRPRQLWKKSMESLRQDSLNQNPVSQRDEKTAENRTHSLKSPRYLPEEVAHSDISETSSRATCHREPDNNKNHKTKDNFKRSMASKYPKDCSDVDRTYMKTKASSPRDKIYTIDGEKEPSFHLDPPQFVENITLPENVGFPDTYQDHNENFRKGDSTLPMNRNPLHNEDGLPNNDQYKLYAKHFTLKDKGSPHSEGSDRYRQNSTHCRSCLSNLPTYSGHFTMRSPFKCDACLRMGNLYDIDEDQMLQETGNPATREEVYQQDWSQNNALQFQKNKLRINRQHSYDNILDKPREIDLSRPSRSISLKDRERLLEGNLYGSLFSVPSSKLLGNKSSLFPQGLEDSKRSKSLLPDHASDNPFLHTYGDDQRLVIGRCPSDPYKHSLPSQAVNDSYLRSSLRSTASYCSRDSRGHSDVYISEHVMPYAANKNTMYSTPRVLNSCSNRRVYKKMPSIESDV

According to ChEMBL document CHEMBL5154888, “Design, synthesis, and in vitro and in vivo characterization of new memantine analogs for Alzheimer's disease” (Eur J Med Chem, 2022):

Target: Glutamate NMDA receptor; Grin1/Grin2a (Rattus norvegicus, UniProt P35439+Q00959)
Assay: Inhibition of eGFP-tagged rat GluN1-1a/GluN2A transfected in human tsA201 cells assessed as inhibition glutamate-induced current measured at -65 mV holding potential applied for 10 secs by whole-cell patch-clamp method
Type: cell-based

CC12CC3CC(C)(C1)CC(N)(C3)C2 [MEMANTINE]
IC50: 1000 nM
